Target: Mitogen-activated protein kinase 14 (Homo sapiens, UniProt Q16539)
Test: Inhibition of human recombinant p38alpha

The chains behind the UniProt entries cited, without tags or fusion partners.
UniProt Q16539, whole entry: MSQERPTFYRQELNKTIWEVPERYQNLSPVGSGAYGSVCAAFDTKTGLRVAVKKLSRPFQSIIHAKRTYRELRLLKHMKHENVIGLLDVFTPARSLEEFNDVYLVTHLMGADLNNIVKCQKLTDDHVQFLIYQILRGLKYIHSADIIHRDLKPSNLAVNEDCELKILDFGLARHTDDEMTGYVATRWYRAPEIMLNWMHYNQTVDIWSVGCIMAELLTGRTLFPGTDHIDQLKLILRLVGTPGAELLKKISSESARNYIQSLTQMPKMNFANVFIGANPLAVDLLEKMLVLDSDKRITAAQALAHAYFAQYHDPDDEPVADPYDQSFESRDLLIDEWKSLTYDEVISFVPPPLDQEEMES

`CC(C)(C)Cn1cnc2ccc(-c3[nH]c(C(C)(C)C)nc3-c3ccc(F)cc3F)nc21` was tested, and the IC50 was 2.3 nM.

Reference: ChEMBL document CHEMBL1143180, “Imidazolyl benzimidazoles and imidazo[4,5-b]pyridines as potent p38alpha MAP kinase inhibitors with excellent in vivo antiinflammatory properties” (Bioorg Med Chem Lett, 2008)
